Consider 2 substances from PMC3166367.

Assay [1] concerns the target dimeric (β15-66)2 fragment of fibrin β chain (full-length βN-domain, dimeric). The assay can be described thus: ELISA.
Assay [2] deals with VE-cad(3) fragment (residues Phe210-Phe325), third domain of the extracellular portion of VE-cadherin. The assay can be described thus: SPR. (In general: SPR reads the build-up and loss of mass on a sensor chip optically.)

pKd: −log10 of the molar value.

As for “VE-cad(3) fragment (residues Phe210-Phe325), third domain of the extracellular portion of VE-cadherin (domain or fragment)”, the pKd in assay [1] was 7.74.
In assay [2], “dimeric (β15-66)2 fragment of fibrin β chain (full-length βN-domain, dimeric) (domain or fragment)” gave a negative-log Kd (pKd) of 7.03.

As usually defined, the pKd is the negative decadic logarithm of the Kd, by convention in mol/L. A low value points to a large Kd.
